The test has as its target human neurokinin 2-receptor (Homo sapiens, UniProt P21452). The test can be described thus: Luciferase activity in NK2-test cell line A20/NK2-122. The settings on record: dosage activity curves, FIG. 29A.

The chains behind the UniProt entries cited, without tags or fusion partners.
UniProt P21452, whole entry: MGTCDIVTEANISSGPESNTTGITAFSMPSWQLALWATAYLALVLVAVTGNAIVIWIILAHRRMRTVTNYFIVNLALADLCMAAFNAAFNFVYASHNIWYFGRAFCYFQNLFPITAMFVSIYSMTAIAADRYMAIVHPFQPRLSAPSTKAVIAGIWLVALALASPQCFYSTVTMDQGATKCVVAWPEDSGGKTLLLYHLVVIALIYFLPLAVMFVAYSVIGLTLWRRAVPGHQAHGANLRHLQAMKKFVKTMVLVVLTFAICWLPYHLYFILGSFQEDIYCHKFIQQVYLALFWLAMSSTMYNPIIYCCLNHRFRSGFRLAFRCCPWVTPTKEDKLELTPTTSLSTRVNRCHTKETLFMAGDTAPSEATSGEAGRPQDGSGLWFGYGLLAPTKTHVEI

As for “neurokinin A: neurokinin (Sigma), agonist at neurokinin 2-receptor”, the “relative effectiveness of the neurokinins” value was “NKA>neuromedin K (NMK)>substance P (SP)”.

The values above are taken from patent US5854004A, “Process for screening substances capable of modulating a receptor-dependent cellular signal transmission path” (Boehringer Ingleheim GmbH, priority 1991, dated 1998).
